Laboratory results as given in ChEMBL document CHEMBL1131715 (Bioorg Med Chem Lett, 1999).

Assay: Inhibitory activity against zinc-dependent Glutamate Carboxypeptidase G

| SMILES | Ki [µM] |
| --- | --- |
| CCP(O)(=S)N[C@@H](CCC(=O)O)C(=O)O (some centres not stated) | 1.24 |
| CP(O)(=S)N[C@@H](CCC(=O)O)C(=O)O (some centres not stated) | 6.2 |
